Test results published in patent US11008325B2, “Inhibitors of cancer invasion, attachment, and/or metastasis” (VIRGINIA COMMONWEALTH UNIVERSITY, priority 2016, dated 2021).

Molecular target: T1, MDA-9 PDZ12 tandem domain (PDZ1) (Homo sapiens, UniProt O00560)
T1 construct: the MDA-9/Syntenin construct used for the screen contains both PDZ domains; made in house
T1 sequence (O00560 110-274): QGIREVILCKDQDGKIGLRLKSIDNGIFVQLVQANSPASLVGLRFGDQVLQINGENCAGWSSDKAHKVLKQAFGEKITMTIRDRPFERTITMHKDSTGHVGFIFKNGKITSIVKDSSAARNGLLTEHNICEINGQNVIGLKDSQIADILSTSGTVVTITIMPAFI
Test: NMR [15N,1H] HSQC chemical shift change and titration binding
Method: FIGS. 4A-4E. FIG. 4A. Chemical structures of the two initial fragment hits (top) and the structure of the resulting molecule 113B7 (PDZ1i). FIG. 4B. Superposition of 2D [^15N, ^1H]-HSQC spectra of 50 μM MDA-9 PDZ12 tandem domain in the absence and presence of 350 μM 113B7. FIG. 4C. Binding curve and representative spectra for the titration of 113B7 against MDA-9 PDZ12 tandem domain. Top: Zoom of box region in FIG. 4B after titrating 113B7 into Mda9 PDZ, tandem domain. The cross peak corresponding to the backbone amide of residue A147 experiences a gradual shift upon the addition of 113B7. Bottom: Titration curve of 113B7 for residue A147. The dissociation constant for the binding of 113B7 to MDA-9 was calculated to be 21.37±8.62 μM. FIG. 4D. Superposition of 2D [^15N, ^1H]-HSQC spectra of 50 μM PDZ domain from X11/mint scaffold protein ([…]; 33% identity with PDZ1) are shown in absence and in presence of […] 113B7. […] FIG. 4E. Docked structure of 113B7 in complex with MDA-9 PDZ tandem domain (PDB: 1W9E). The pose was obtained with GOLD. Two PDZ domains of MDA-9 are labeled.
A small molecule targeting MDA-9/Syntenin inhibits invasion and radiosensitizes GBM. […] FBDD is an important technique that has been used with success in efforts to develop small molecule inhibitors of challenging drug targets including those involved in protein-protein interactions. […]

Structure (SMILES): O=C(Nc1cc(Cl)c(O)c(Cl)c1)c1nc2[nH]c3c(c(=O)n2n1)CCC3 [112F11]
- Kd: 71.8 µM
